The nature of this series: Irradiation of ammonium molybdate phosphate powder, 99Mo activity in washes, target and capture matrix. The conditions noted are these: water, in words. As for the experimental part:
Irradiation of ammonium molybdate phosphate solid powder for 15 min at a neutron flux of 8×10^11 n cm^−2 s^−1 yielded the following results (Table 2). Sample 1 is ammonium molybdate phosphate powder irradiated and contacted with water post irradiation for solubility and radioisotope recoil studies. The irradiated sample 1 was washed twice with water (wash 1 and wash 2) to determine separation of the recoiled Molybdenum-99 (^99Mo) and solubility of the Molybdenum compound in the water capture matrix. Wash 1, Wash 2, and the irradiated molybdenum target were all analyzed for ^99Mo activity using gamma spectroscopy at the prominent ^99Mo peak of 141 KeV.
In sample 2 ammonium molybdate phosphate was irradiated in contact with a water capture matrix. Post irradiation the capture matrix was separated from the irradiation target and washed an additional time to determine post irradiation solubility (wash 1). The irradiation target, capture matrix and wash 1 were analyzed via gamma spectroscopy under similar conditions to sample 1.

As to ammonium molybdate phosphate [Sample 2], the “solubility in the capture matrix” value is recorded as “slight solubility”. In the case of ammonium molybdate phosphate [Sample 1], the “solubility in the capture matrix” value is listed as “minimally soluble”.

These data come from US10804000B2, “High efficiency continuous-flow production of radioisotopes” (priority 2016, dated 2020).
